UUG fidelity: alters start codon recognition fidelity in yeast. S. cerevisiae UUG-firefly luciferase reporter, luminescence/redox ratio. 350,000 tested, 0.13% active. activity score, % at 18.7 µM. AID 602363;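 active means replicate mean at a twofold rise or more, about +100% in these data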;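 further: firefly luciferase made from a UUG start codon reports start codon fidelity; reporter light over untreated wells divided by growth signal over untreated wells; some hits fall short of that in this replicate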
MC4R antagonist: blocks human MC4R cAMP signaling; MC4R-expressing cells, MTII-stimulated cAMP, LANCE TR-FRET; inhibition, % at 6.5 µM; actives 0.48% (n = 360,000); AID 540295;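 active = inhibition above its plate's cutoff, the mean of tested wells on that plate plus 3 SD, cut at about 29% in these data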;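 note: 0% = Melanotan II alone and 100% = Melanotan II plus saturating MCL0020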
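Assay system: U2OS-MC4R stable cell line; Also added: Melanotan II; Technique: Eu-cAMP/anti-cAMP TR-FRET, emission 671 nm; Times: 30-min compound, 1-h challenge, 1-h detection, room temperature.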
MC4R barr agon: agonists of human melanocortin 4 receptor (MC4R) beta-arrestin | activation, % at 8.9 µM | U2OS MC4R beta-arrestin complementation, luminescence; percent of melanotan II response, DMSO zero | AID 540308 | actives 0.98% (n = 360,000);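 active = activation above a per-plate cutoff, the mean activation of sample wells on that plate plus 3 SD, cut at about 8% in these data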
ASAP1 inh: ASAP1 ArfGAP inhibition. Q9ULH1. ASAP1-stimulated ARF1 GTP hydrolysis, GDP FP detection. inhibition, % at 16.5 µM. actives 0.19% (n = 360,000); in the data active = inhibition above about 25%;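 note: 0% = vehicle with enzyme and substrate and 100% = no enzyme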
CendR NRP1 mod: alters CendR peptide binding to human NRP-1 | O14786 | FAM-RPARPAR peptide binding to NRP-1, fluorescence polarization | inhibition, % at 25 µM | actives 0.85% (n = 360,000) | AID 602438;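 active = inhibition or corrected inhibition above about 18%, plus a signal ratio from 0.5 to 1.5, limit read from the data, passing the limit was not always enough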
ARFGAP1 inh: inhibitors of rat ARFGAP1. Arfgap1-stimulated ARF1 GTP hydrolysis, GDP FP detection. inhibition, % at 16.5 µM. actives 0.26% (n = 360,000). AID 651572;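 active = inhibition above a per-plate limit, mean inhibition of low control wells plus 3 SD, cut at about 25% in these data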;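 note: 0% = DMSO wells with enzyme and 100% = wells lacking Arfgap1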
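Assay system: purified rat His6-Arfgap1 residues 1-136 (GAP domain); Reagent: human Δ17 ARF1 bound to GTP; Dosing: 16.5 µM single point, 1.26% DMSO; Times: GTP hydrolysis reaction 2 h at 25 °C; Signal: FP, GDP Alexa 633 tracer displaced from anti-GDP antibody, 620/688 nm; Measure: % inhibition from polarization.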
Active calls of the source: *. The list is not random: actives were taken first. Their share in the collection is about 2.3%.

O=C(CC1(O)C(=O)Nc2cc(Cl)cc(Cl)c21)c1ccccc1O (centres undefined) was read as UUG fidelity 11, MC4R antagonist 1, MC4R barr agon -1, ASAP1 inh -4, CendR NRP1 mod 43* and ARFGAP1 inh 1.
For O=C(CC1(O)C(=O)Nc2ccccc21)c1ccccc1O (centres undefined) the results were UUG fidelity -21, MC4R antagonist 2, MC4R barr agon 0, ASAP1 inh -5, CendR NRP1 mod 6 and ARFGAP1 inh -14.
O=C(c1ccc(-c2nnc(Nc3cccc(Cl)c3)c3ccccc23)cc1)N1C[C@H]2C[C@H](C1)c1cccc(=O)n1C2 was read as UUG fidelity -15, MC4R antagonist 24, MC4R barr agon -1, ASAP1 inh -1, CendR NRP1 mod -14 and ARFGAP1 inh 1.
For COc1nnc(-c2ccc(C(=O)N3C[C@@H]4C[C@H](C3)c3cccc(=O)n3C4)cc2)c2ccccc12 the results were MC4R antagonist 2, MC4R barr agon -2, ASAP1 inh 15, CendR NRP1 mod 19* and ARFGAP1 inh 3.
CO[C@@H]1CN(C)C(=O)c2ccc(NS(=O)(=O)c3ccc(C)cc3)cc2OC[C@H](C)N(Cc2nccs2)C[C@@H]1C was read as UUG fidelity 2.
CCOc1cc(C(=O)N2CCC(CC3CC(c4ccccc4)=NO3)(C(=O)NCc3ccc(OC)cc3)CC2)cc(OCC)c1OCC (centres undefined) was read as UUG fidelity 11, MC4R antagonist 9, MC4R barr agon 0, ASAP1 inh 21, CendR NRP1 mod 45* and ARFGAP1 inh -4.
Screening COc1ccc(CNC(=O)C2(CC3CC(c4ccccc4)=NO3)CCN(C(=O)Cc3ccc(F)cc3)CC2)cc1 (centres undefined) returned UUG fidelity -7, MC4R antagonist 10, MC4R barr agon 1, ASAP1 inh -1, CendR NRP1 mod 9 and ARFGAP1 inh -2.
CCCNC(=O)C1(CC2CC(c3ccccc3)=NO2)CCN(C(=O)c2ccccc2)CC1 (centres undefined) was read as UUG fidelity -4, MC4R antagonist -2, MC4R barr agon 0, ASAP1 inh 4, CendR NRP1 mod 27* and ARFGAP1 inh -4.
For CC(NC(=O)[C@H](C)NC(=O)N1CCn2c1nc1ccccc12)c1ccccc1 (some centres undefined) the results were UUG fidelity -17, MC4R antagonist 7, MC4R barr agon -2, ASAP1 inh 3, CendR NRP1 mod 24* and ARFGAP1 inh -8.
CC(=O)NS(=O)(=O)c1ccc(N=NN2CCOCC2)cc1 was read as UUG fidelity -17, MC4R antagonist 7, MC4R barr agon 1, ASAP1 inh 3, CendR NRP1 mod 27* and ARFGAP1 inh 2.

3 compounds already listed, ordered by formula weight, low to high:
For O=C(CC1(O)C(=O)Nc2ccccc21)c1ccccc1O (centres undefined) the results were UUG fidelity -21, MC4R antagonist 2, MC4R barr agon 0, ASAP1 inh -5, CendR NRP1 mod 6 and ARFGAP1 inh -14.
For CC(NC(=O)[C@H](C)NC(=O)N1CCn2c1nc1ccccc12)c1ccccc1 (some centres undefined) the results were UUG fidelity -17, MC4R antagonist 7, MC4R barr agon -2, ASAP1 inh 3, CendR NRP1 mod 24* and ARFGAP1 inh -8.
CO[C@@H]1CN(C)C(=O)c2ccc(NS(=O)(=O)c3ccc(C)cc3)cc2OC[C@H](C)N(Cc2nccs2)C[C@@H]1C was read as UUG fidelity 2.

Further compounds follow:
Screening COc1ccc(CCC(=O)N2CCCc3ccccc32)cc1 returned UUG fidelity -7, MC4R antagonist 7, MC4R barr agon 1, ASAP1 inh -6, CendR NRP1 mod 28* and ARFGAP1 inh 5.
`CNC[C@@H]1Oc2cc(C#CC3CCCC3)ccc2S(=O)(=O)N([C@H](C)CO)C[C@H]1C` gave UUG fidelity 8.
For O=C(CCN1CCCCC1)NCC[C@H]1CC[C@@H](NC(=O)Cc2cccnc2)[C@@H](CO)O1 the results were UUG fidelity 1.
Screening COC(=O)CSc1nc(N)c(C#N)c(-c2ccc(O)cc2)c1C#N returned UUG fidelity -19, MC4R antagonist -33, MC4R barr agon -2, ASAP1 inh 16, CendR NRP1 mod -14 and ARFGAP1 inh 12.
Screening CCOC(=O)CSc1nc(N)c(C#N)c(-c2ccc(OCC)cc2)c1C#N returned UUG fidelity -22, MC4R antagonist 23, MC4R barr agon 9.4*, ASAP1 inh 7, CendR NRP1 mod -15 and ARFGAP1 inh 7.
For CO[C@@H]1CN(C)C(=O)c2ccc(NC(C)=O)cc2OC[C@H](C)N(C(=O)c2cccnc2)C[C@H]1C the results were UUG fidelity -8.
Screening Cc1ccc(N2CCN(S(=O)(=O)N3CCCCCC3)CC2)cc1Cl returned UUG fidelity -42, MC4R antagonist -6, MC4R barr agon 1, ASAP1 inh 6, CendR NRP1 mod 1 and ARFGAP1 inh 0.
Cc1ccc(N2CCN(S(=O)(=O)N3CCCCC3)CC2)cc1C was read as UUG fidelity -5, MC4R antagonist 23, MC4R barr agon -4, ASAP1 inh -1, CendR NRP1 mod 31* and ARFGAP1 inh -6.
C=C[C@H](COC(C)=O)N(Cc1ccc(OC(C)=O)c(OC)c1)S(=O)(=O)c1ccc(Br)cc1 was read as UUG fidelity -8.
`CSc1nnc(-c2cc(Br)ccc2N=Cc2c(C)[nH]n(-c3ccccc3)c2=O)c(=O)[nH]1` gave MC4R antagonist 8, MC4R barr agon -1, ASAP1 inh -8, CendR NRP1 mod 18* and ARFGAP1 inh -2.
CCOC(=O)C1Nc2ccccc2C2C(O)C(O)CC12 (centres undefined) was read as UUG fidelity -12, MC4R antagonist -11, MC4R barr agon -1, ASAP1 inh -4, CendR NRP1 mod 27* and ARFGAP1 inh 5.
`CCOC(=O)C1Nc2ccc(C(F)(F)F)cc2C2c3ccccc3CC12` (centres undefined) gave UUG fidelity -8, MC4R antagonist 6, MC4R barr agon -1, ASAP1 inh -2, CendR NRP1 mod -4 and ARFGAP1 inh 12.
`C[C@H](CO)N1C[C@H](C)[C@H](CN(C)Cc2ccc3c(c2)OCO3)Oc2c(NS(=O)(=O)c3ccc(Cl)cc3)cccc2C1=O` gave UUG fidelity -3.
`O=C(C[C@@H]1C=C[C@H](NC(=O)Nc2ccccc2)[C@H](CO)O1)NCc1cccc(F)c1` gave UUG fidelity -17.
Screening Cc1ccc(SCC(=O)OCC(=O)N(CCC#N)c2ccccc2)cc1 returned UUG fidelity -15, MC4R antagonist -2, MC4R barr agon -1, ASAP1 inh 7, CendR NRP1 mod 31* and ARFGAP1 inh 0.
Screening CC/C(=N\NC(=O)c1c[nH]c2ccccc12)c1cccs1 returned MC4R antagonist -2, MC4R barr agon 2, ASAP1 inh -2, CendR NRP1 mod 30* and ARFGAP1 inh -2.
For C/C(=N\NC(=O)c1c[nH]c2ccccc12)c1ccc(C)s1 the results were UUG fidelity 8, MC4R antagonist 2, MC4R barr agon -2, ASAP1 inh -4, CendR NRP1 mod 2 and ARFGAP1 inh -11.
Screening C[C@@H]1CCCCO[C@H](CN(C)C(=O)Nc2ccc(F)cc2)[C@@H](C)CN([C@@H](C)CO)C(=O)c2cc(NS(=O)(=O)c3ccc(Cl)cc3)ccc2O1 returned UUG fidelity -7.
